Reference: publication PMC11324687

By UniProt entry, the sequences of proteins in these tests, tags left out.
UniProt P35372, whole entry, looked up: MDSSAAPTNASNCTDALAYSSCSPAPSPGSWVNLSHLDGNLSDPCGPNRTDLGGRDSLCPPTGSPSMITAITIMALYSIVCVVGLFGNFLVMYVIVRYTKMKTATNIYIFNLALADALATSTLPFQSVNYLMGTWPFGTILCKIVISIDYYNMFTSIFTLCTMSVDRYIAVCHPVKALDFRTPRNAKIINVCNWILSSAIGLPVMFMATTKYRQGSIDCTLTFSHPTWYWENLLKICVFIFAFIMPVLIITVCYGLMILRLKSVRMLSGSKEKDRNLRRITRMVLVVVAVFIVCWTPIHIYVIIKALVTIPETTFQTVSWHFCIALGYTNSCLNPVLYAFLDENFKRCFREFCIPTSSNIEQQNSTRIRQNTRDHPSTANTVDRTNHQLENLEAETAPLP

Tests used:
[1] = biological target: T1, human MOR (Homo sapiens, UniProt P35372); assay: NanoBiT MOR β-arrestin 2 (βarr2) recruitment assay
[2] = biological target: T1, human MOR; assay: GloSensor cAMP assay (inhibition of forskolin-stimulated cAMP accumulation)

Compound: CN1CC[C@]23c4c5ccc(O)c4O[C@H]2C(=O)CC[C@H]3[C@H]1C5
- Emax (% DAMGO) ([1]; MOR-βarr2, Table 1 values converted with 100%/207%): 48.3 (46.5-50.2) % DAMGO
- Emax (% HM) ([1]; MOR-βarr2, separate set of experiments (Table S2-1), n = 3): 100 (96.5-104) % HM
- Emax (% HM) ([1]; MOR–βarr2, relative to hydromorphone, 95% CI in parentheses): 100 (96.3–104) % HM
- Emax (% DAMGO) ([2]; Table 1 values converted with 100%/105%): 95.2 (87.4-104) % DAMGO
- Emax (% HM) ([2]; relative to hydromorphone, 95% CI in parentheses): 100 (91.8–109) % HM
